Screens deposited in PubChem BioAssay by Broad Institute.
The list is not random: actives were taken first. Their share in the collection is about 2.8%.
C2C12 statin: suppressors of simvastatin-induced myotoxicity in C2C12 myotubes. ATP luminescence, 48 h; scaled: DMSO 0, geranylgeraniol control 100. rescue of ATP level, % at 7.49 µM. 0.78% of 330,000 active. AID 602340;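 active = mean ATP rescue above about 67%, or every replicate alone reaching that limit, limit read from the data, passing the limit was not always enough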;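 also: myotubes were challenged with 10 µM simvastatin during compound exposure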
PGC1a acetyl inh: PGC1a acetylation modulation, inhibitor mode; inhibition, % at 15.6 µM; AID 651687; U2OS PGC1a acetylation, AlphaScreen anti-acetyl-lysine; with virally co-expressed GCN5 acetyltransferase; 0.17% of 350,000 active;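 active = every replicate shows inhibition of at least 40%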;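 also: 0% = neutral control wells and 100% = positive control wells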
PglD inh: blocks C. jejuni PglD acetyltransferase activity; purified PglD enzyme, DTNB colorimetric CoA detection; inhibition, % at 12.5 µM; 0.098% of 360,000 active; AID 602405; in the data active = inhibition above about 16%, passing the limit was not always enough
Yeast UUG start-1: alters start codon recognition fidelity in yeast. S. cerevisiae UUG-firefly luciferase reporter, luminescence/redox ratio. 350,000 tested, 0.13% active. activity score, % at 18.7 µM. AID 602363;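 active means replicate mean at a twofold rise or more, about +100% in these data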;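 further: firefly luciferase made from a UUG start codon reports start codon fidelity; reporter light over untreated wells divided by growth signal over untreated wells; some hits fall short of that in this replicate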
E-sel inducer: E-selectin induction on HUVECs; 0.37% of 260,000 active; P16581; AID 686992; HUVEC E-selectin immunofluorescence imaging; normalized: neutral wells 0, TNF-alpha wells 100; activation, % at 7.58 µM;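 active = mean E-selectin-positive cell signal at least 10% of the positive control, reached in at least 60% of replicates, without over 20% cell loss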
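Test system – human umbilical vein endothelial cells (HUVEC), E-selectin induction · Input – 3,000 HUVEC seeded per well · Buffer or medium – EGM-2, gelatin · Compound dosing – single-point compound dose · Detection – immunofluorescence imaging · Measure – percent E-selectin-positive cells · Controls – TNF-alpha high, DMSO low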
esBAF inh: SWI/SNF esBAF complex inhibition. 2% of 350,000 active. reporter increase, % at 12.5 µM. mouse ES cells, Bmi1-luciferase knock-in reporter, 24 h; 100% = twice the neutral-well signal; in the data active = activation above about 40%;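 also: 0% = median of the plate's neutral control wells and 100% = double that signal; a rise in the Bmi1 reporter signal indicates esBAF inhibition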
Yeast UUG start-2: modulators of start codon recognition fidelity in yeast | shares compounds with Yeast UUG start-1 | activation, % at 38 µM | S. cerevisiae UUG-start firefly luciferase, luminescence, 4 h; 100% means double the DMSO signal | 540 tested, under 10 active | AID 652061;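 active = signal increase whose fitted curve reaches an absolute level of 40 at a concentration under 10 µM; inactive = activity opposite to the expected increase, or the rest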
* = called active by the depositor; i = inactive; · = not tested or not shown.

Compound	C2C12 statin	PGC1a acetyl inh	PglD inh	Yeast UUG start-1	E-sel inducer	esBAF inh	Yeast UUG start-2
O=S(=O)(N[C@H]1CC[C@@H](CCn2cc(C3(O)CCCC3)nn2)O[C@@H]1CO)c1ccc(F)cc1	-6	0	1	178*	1	-5	i
O=C(N[C@@H]1CC[C@H](CCn2cc(C3(O)CCCC3)nn2)O[C@@H]1CO)C1CCCCC1	1	-1	-3	7	0	6	·
O=C(N[C@H]1CC[C@H](CCn2cc(C3(O)CCCC3)nn2)O[C@H]1CO)C1CCCCC1	7	3	-6	162*	0	1	i
Cc1noc(C)c1S(=O)(=O)Nc1ccc2c(c1)C(=O)N([C@H](C)CO)C[C@H](C)[C@@H](CN(C)Cc1ccc(C(F)(F)F)cc1)OCCCC[C@H](C)O2	·	26	6	·	0	11	·
COCCNC(=O)C[C@@H]1CC[C@@H](NS(=O)(=O)c2ccc(C)cc2)[C@@H](CO)O1	2	-1	6	2	0	0	·
COc1ccc(-c2nc(CSCC(=O)N3CCN(C)CC3)c(C)o2)cc1OC	10	2	0	1	1	-2	·
COc1ccc(-c2cn(CC(=O)N3CCN(C)CC3)nn2)cc1OC	·	8	2	148*	·	·	i
CC(O)(C#CCN1CCCC1)c1ccccc1 (stereo not drawn)	-9	3	6	5	·	-1	-5
OC(C#CCN1CCCC1)(c1ccccc1)c1cccc(F)c1 (stereo not drawn)	·	·	·	·	0	·	12
CC(O)(C#CCN1CCCCC1)c1ccccc1 (stereo not drawn)	5	-15	-8	-22	·	-3	·
Cn1nc(CC(=O)NC2CCCCC2)c2ccccc2c1=O	6	12	·	·	·	13	-4
Cn1nc(CC(=O)NC2CCCCCC2)c2ccccc2c1=O	21	4	4	-35	1	-17	11
COCCNC(=O)C[C@H]1CC[C@H]2[C@@H](COc3ccc(NC(=O)C4CCCC4)cc3C(=O)N2C)O1	7	-1	-1	3	0	-2	·
COc1ccc(CN(C)C[C@@H]2Oc3ccc(NC(=O)Cc4cn(C)c5ccccc45)cc3CC(=O)N([C@@H](C)CO)C[C@@H]2C)cc1	10	3	2	0	0	-2	·
CC1(C#CC[N+]2(C)CCCCC2)CCC2C(O1)c1ccccc1OC2(C)C (stereo not drawn)	·	10	1	active	15	-6	-4
CC12CCC3(CO)COC(c4ccccc4O1)C2C3 (stereo not drawn)	·	3	9	-17	·	·	·
COc1ccc2c3c(n(C)c2c1)[C@H](CO)N(Cc1ccccc1F)CC31CCN(CC2CC2)CC1	·	-17	·	·	1	·	·
CC(C)c1ccc(CCNC(=O)c2ccc([N+](=O)[O-])cc2)cc1	-32	-20	-1	406*	·	-6	1
Cc1nn(CC#N)c(=O)n1-c1ccccc1F	-2	9	-6	-19	·	1	·
Cc1ccc(-n2c(C)nn(CC#N)c2=O)cc1	4	17	2	346*	3	-7	-1
O=C(Cc1ccccc1F)Nc1ccccc1-c1ccccc1	·	·	·	·	1	·	·
O=C(Cc1c(F)cccc1Cl)Nc1ccccc1-c1ccccc1	-2	·	5	540*	·	-10	-7
CN(C)CC(=O)Nc1ccc2c(c1)[C@@H]1C[C@H](CC(=O)N(C)C)O[C@H](CO)[C@@H]1O2	1	9	0	-10	0	3	·
CO[C@@H]1CN(C)C(=O)c2cc(NC(=O)Nc3c(C)noc3C)ccc2OC[C@@H](C)N(CC2CC2)C[C@@H]1C	10	0	2	-3	0	-8	·
COC(=O)c1c2oc(c1C(=O)OC)C(=O)N[C@@H](Cc1ccccc1)Cn1cc(nn1)CNC(=O)[C@@H](Cc1ccccc1)NC(=O)N[C@@H](CO)CC2	·	3	-2	116*	·	·	i
CC1C/C(=C/c2ccncc2)C(=O)/C(=C/c2ccncc2)C1 (stereo not drawn)	9	35	2	302*	0	-14	-28
CCc1[nH]c(C)c(C(C)=O)c1C	-15	4	6	416*	·	-5	4
CC(=O)c1c(C)[nH]c(C)c1C(C)=O	8	-12	-3	-1	·	-5	·
COCC(=O)N1[C@H](CO)[C@H](c2ccccc2)C12CN(C(=O)Cc1ccccn1)C2	·	11	·	·	0	·	·
CN(C(=O)c1ccccc1Cl)C1CCCCC1	5	2	-1	-13	·	30	·

Continued, starting with the last 5 of the part before.
Compound	C2C12 statin	PGC1a acetyl inh	PglD inh	Yeast UUG start-1	E-sel inducer	esBAF inh	Yeast UUG start-2
CC1C/C(=C/c2ccncc2)C(=O)/C(=C/c2ccncc2)C1 (stereo not drawn)	9	35	2	302*	0	-14	-28
CCc1[nH]c(C)c(C(C)=O)c1C	-15	4	6	416*	·	-5	4
CC(=O)c1c(C)[nH]c(C)c1C(C)=O	8	-12	-3	-1	·	-5	·
COCC(=O)N1[C@H](CO)[C@H](c2ccccc2)C12CN(C(=O)Cc1ccccn1)C2	·	11	·	·	0	·	·
CN(C(=O)c1ccccc1Cl)C1CCCCC1	5	2	-1	-13	·	30	·
CN(N=Nc1ccccc1C(=O)O)C1CCCCC1	33	·	2	169*	·	-1	-5
CCn1c(CCNC(=O)c2ccc(OC)cc2)nnc1SCC(=O)Nc1ccccc1F	1	-11	0	316*	·	5	1
COCc1cn(CC[C@H]2CC[C@@H](NC(=O)CCN3CCCCC3)[C@H](CO)O2)nn1	6	1	6	-9	0	-2	·
COCc1cn(CC[C@@H]2CC[C@H](NC(=O)CCN3CCCCC3)[C@@H](CO)O2)nn1	-1	4	3	39*	0	-2	i
CN(C)CC(=O)N[C@H]1CC[C@H](CCn2cc(CN(C)C)nn2)O[C@H]1CO	3	6	0	191*	0	-3	i
CC(C)c1cn(CC[C@@H]2CC[C@H](N)[C@@H](CO)O2)nn1	-9	-4	-3	193*	0	-6	i
CCCNC(=O)N[C@@H]1CC[C@@H](CCn2cc(C3CC3)nn2)O[C@H]1CO	3	1	3	4	0	-4	·
CCCNC(=O)N[C@H]1CC[C@H](CCn2cc(C3CC3)nn2)O[C@@H]1CO	-3	15	2	145*	0	-3	i
CC(C)CC#Cc1ccc2c(c1)O[C@H](CN(C)Cc1ccc(C(=O)O)cc1)[C@@H](C)CN([C@H](C)CO)S2(=O)=O	-8	3	-1	4	·	6	·
COc1ccc([C@@H](OC(=O)Nc2ccc(SC)cc2)[C@@H](CCO)OC)cc1O	·	10	-2	151*	·	·	i
Cn1cnc(S(=O)(=O)N2CC[C@@H]3[C@H]2c2cc(C#CC4CCCC4)ccc2N[C@@H]3CO)c1	·	·	·	·	2	·	·
O=C(CSc1nnc2c(n1)[nH]c1ccccc12)OCc1ccccc1	·	-9	-3	410*	·	3	1
O=C(O)CSc1nnc2c(n1)[nH]c1ccccc12	·	·	·	·	0	·	·
COc1ccccc1CCNC(=O)c1ccc(NC(=O)CC2SC(N3CCCCC3)=NC2=O)cc1 (stereo not drawn)	-2	-9	·	117*	0	1	7
COc1ccccc1OCCNC(=O)c1ccc(NC(=O)CC2SC(N3CCCC3)=NC2=O)cc1 (stereo not drawn)	9	2	3	-1	0	5	·
